This experiment concerns the target Wild-type CXCL12 (CXCL12α) (Homo sapiens (Human)) (UniProt P48061). The experiment can be described thus: CXCL12 self-association with the sTyr21 sulfopeptide present against without it; method not named.

Chains of the proteins cited; added tags and fusions are not shown. Residues count along the entry.
UniProt P48061, 22-89 limits assumed: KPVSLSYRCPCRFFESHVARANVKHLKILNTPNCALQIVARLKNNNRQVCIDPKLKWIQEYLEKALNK

Results on one substance are retold here after patent US20190374607A1.

“Wild-type CXCL12 (CXCL12α) (from UniProt P48061 22-89) (ligand; other documents disagree on this pair)” yielded a fold increase of CXCL12 dimerization affinity of 8 fold.
